# Yeast mating assay B: variants of the scFv Ab-14

Reference: Li et al. 2023, doi:10.1038/s41467-023-39022-2. File: FLAb, binding data.

Antigen: PDVDLGDISGINAS, a 14-residue peptide of the SARS-CoV-2 spike HR2 region.

Ab-14 is the parent antibody, in scFv form: VH, then a (GGGGS)3 linker, then VL. The heavy chain is unchanged in all variants.
VH: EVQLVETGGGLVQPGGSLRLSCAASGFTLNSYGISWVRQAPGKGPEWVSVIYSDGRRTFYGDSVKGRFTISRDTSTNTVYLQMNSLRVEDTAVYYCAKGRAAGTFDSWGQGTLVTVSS
VL: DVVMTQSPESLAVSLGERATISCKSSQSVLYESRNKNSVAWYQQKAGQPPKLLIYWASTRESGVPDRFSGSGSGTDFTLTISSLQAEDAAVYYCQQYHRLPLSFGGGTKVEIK

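This is the validation round: designs drawn from the data on random variants, tested in the same kind of assay. Group labels follow the data file (Ctrl: baseline library sampled from a position-specific scoring matrix, with some repeated check sequences; GP: Gaussian process model; HC: hill climbing; Gen: genetic algorithm; Gibbs: Gibbs sampling; a sequence that several methods proposed may carry one label only). The assay is AlphaSeq: two haploid yeast populations carry antibody and antigen on their surface. Binding brings cells together so that they mate, and sequencing counts the barcode pairs among the diploids. A regression on co-assayed BCL2-family reference pairs converts the normalised counts of each replicate to an apparent Kd. There are six technical replicates.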

The parent's light chain CDRs are KSSQSVLYESRNKNSVA, WASTRES, QQYHRLPLS; each variant's own CDRs replace them letter for letter.
Variants here have at most six changes.
The read-out is the apparent dissociation constant on a log10 scale (nM): the lower, the stronger.
A mean of the replicates is given; it leaves out those without a signal.
A pair that was not seen in that replicate is written "n.d."; this usually means weak binding, but a binder can also be missed.
In the paper, a design with two or fewer of six values counts as a poor binder.
As a blank, each scFv also met three strains without target: over all light chain designs, 4% of these pairings were detected, typically at 2.64 and seldom below 1.59. For each scFv, signals with the empty controls are counted beside the result, with their mean in brackets.
The range of this assay differs from that of the first round, and the authors advise against merging the two.

| CDR-L1 | CDR-L2 | CDR-L3 | group | log10 Kd, replicates | mean, log10 nM | signal with controls |
|---|---|---|---|---|---|---|
| LSSQSVQYDSRNKNSVA | AASTRES | QQYGRLPLS | Ctrl | 0.74 0.97 0.74 0.66 0.96 0.90 | 0.83 | 0 of 18 |
| KSSLSVEYESRNKNQVA | AASTRES | QQYHRLPLS | Ctrl | 0.98 0.60 0.18 0.31 0.50 0.76 | 0.56 | 1 of 18 (2.74) |
| KLSQSELYESRVKNNVA | AASQRES | QQYHRLPLS | GP_Gibbs | 1.17 0.62 0.37 0.66 0.24 0.62 | 0.61 | 1 of 18 (2.61) |
| KSSQSVLYESQNKNSVA | WCSTRES | QQYHRLPLS | Ctrl | n.d. n.d. n.d. n.d. n.d. n.d. | n.d. | 1 of 18 (1.72) |
| KSKQVVLYESCNKNSIA | KASTRES | QQYHRLPLS | Ctrl | 1.96 n.d. 1.68 n.d. n.d. 2.26 | 1.97 | 0 of 18 |
| KLLQSVLYESRNKNSVA | HASTRED | QQYHQLPLS | GP_HC | 0.14 0.23 0.21 0.12 0.16 0.43 | 0.22 | 2 of 18 (2.71) |
| KLAQSVLYESRNKNSVA | GASTRES | QQYHRLPLS | GP_Gen | 0.01 -0.35 -0.52 -0.35 -0.31 -0.13 | -0.27 | 0 of 18 |
| KSSQSWLYESRNKNSVA | HASTREK | QQYHRLPLS | Ctrl | 0.34 0.42 0.16 0.48 0.47 0.42 | 0.38 | 4 of 18 (2.51) |
| QSSQSVLYESRNCNSVA | NASTRES | QQYHRLPLS | Ctrl | 0.98 1.00 0.93 0.65 1.23 1.45 | 1.04 | 3 of 18 (2.57) |
| KSSISYLYESANKNSVA | EASTRES | QQYHRLPLS | GP_HC | 0.40 0.17 0.61 1.09 0.73 0.67 | 0.61 | 0 of 18 |
| KSEQSVLYESRDKNSVA | HASTRED | QQYHRLPLS | GP_HC | 0.40 -0.05 0.13 0.09 0.01 0.14 | 0.12 | 1 of 18 (2.82) |
| KSSQSVLYESGNKNSVA | WASTRES | QQYHREPLS | Ctrl | n.d. n.d. 1.84 n.d. n.d. n.d. | 1.84 | 0 of 18 |
| KFSQSVLYESRNKNSVA | AASTRES | QQYHRLPLS | Ctrl | n.d. n.d. n.d. n.d. n.d. n.d. | n.d. | 0 of 18 |
| KLSQSELYESRNKNSVA | NASTREK | QQYHRLPLS | GP_Gen | 0.00 -0.21 -0.29 -0.18 -0.31 -0.04 | -0.17 | 2 of 18 (2.90) |
| KSSQPVLYESRNKNSVA | KASTRES | QQYHRKPLS | Ctrl | 2.85 1.88 1.60 1.14 2.47 3.03 | 2.16 | 0 of 18 |
| KSLQSQEYESRNKNSVA | HASTRED | QQYHRLPLS | GP_HC | -0.16 -0.21 0.01 -0.21 -0.15 0.05 | -0.11 | 1 of 18 (3.08) |
| KSSQSVLYESRNKNSVA | WASTRNS | QQYHKLPLS | Ctrl | n.d. n.d. 2.13 3.80 3.00 2.27 | 2.80 | 2 of 18 (2.01) |
| KFSQSVLYESTTQNSVA | NASTRES | QQYHRLPLS | GP_HC | n.d. 0.87 2.18 n.d. n.d. n.d. | 1.52 | 0 of 18 |
| KLVNSTLYESRQKNSVA | GASTRES | QQYHRLPLS | GP_HC | 0.55 0.29 0.33 0.45 0.37 0.43 | 0.40 | 0 of 18 |
| KLSMSMLYESRNKNSVA | HASTRES | QQYHRLPLS | GP_Gen | 0.17 -0.08 -0.16 -0.24 -0.15 -0.07 | -0.09 | 5 of 18 (3.08) |
| KFSQQVLYESRQKNSVA | NASQRFS | QQYHRLPLS | GP_Gibbs | -0.06 0.24 0.13 0.03 0.18 0.17 | 0.11 | 1 of 18 (2.87) |
| KSSQSVLYESRNENSVA | WAKTRES | QQYRRLPLI | Ctrl | n.d. n.d. 1.29 1.11 n.d. n.d. | 1.20 | 0 of 18 |
| KLSQSVLYESRNKNSVA | EASTRES | QNYHRLPLS | GP_Gen | 0.07 0.07 -0.12 0.11 -0.15 -0.03 | -0.01 | 1 of 18 (2.66) |
| KLSQSDEYESRNKNSVA | NASQRES | QQYHRLPLS | GP_Gen | -0.25 -0.34 -0.44 -0.39 -0.45 -0.22 | -0.35 | 2 of 18 (2.67) |
| NRSQSVTYESRNKNSVA | WASTRES | QQYHRLPLS | Ctrl | n.d. n.d. n.d. n.d. n.d. 2.72 | 2.72 | 0 of 18 |
| KVSISILYESRNHNSVA | WASTRES | QQYHRLPLS | Ctrl | 1.82 n.d. n.d. n.d. n.d. n.d. | 1.82 | 0 of 18 |
| KLPQSVLYEERNKNSVA | NASTRES | QQYHRLPLS | GP_Gen | 0.18 -0.25 -0.26 -0.35 -0.24 -0.04 | -0.16 | 1 of 18 (1.42) |
| KISQSCLYESRVKNSVA | DASTRES | QQYVRLPFS | Ctrl | 0.16 0.07 -0.09 -0.14 -0.13 0.08 | -0.01 | 2 of 18 (2.97) |
| KSSQSFLYESRWKNNVA | GASQRES | QQYHRLPLS | GP_HC | 0.96 0.84 1.08 0.90 1.07 1.11 | 0.99 | 4 of 18 (3.94) |
| KLSQSDLYESRNKNAVA | QASTRES | QQYHRLPLS | GP_Gen | -0.15 -0.36 -0.39 -0.50 -0.35 -0.27 | -0.34 | 4 of 18 (3.16) |
| KSSQSVLYESRNKNSLA | SANTRES | QQYHRLPLS | Ctrl | 1.47 0.99 1.12 0.84 0.71 1.45 | 1.10 | 1 of 18 (1.65) |
| KLQQSELYESRNKNSVA | GASTRES | QQYHRLPLS | GP_Gen | -0.02 -0.13 -0.35 0.05 -0.11 0.31 | -0.04 | 1 of 18 (2.29) |
| KSSISNLGEKRNKNSVA | EASTRES | QQYHRLPLS | GP_HC | 0.61 0.48 0.76 0.28 0.68 0.67 | 0.58 | 4 of 18 (3.54) |
| KSSQSVSYESRDKNSVA | WASTRES | CQYHHLPLS | Ctrl | n.d. n.d. n.d. n.d. n.d. n.d. | n.d. | 0 of 18 |
| KISQSVEYESRDKNSVA | DANTRLS | QQYHRLPLS | GP_Gibbs | 0.37 0.26 0.05 0.04 0.18 0.14 | 0.17 | 1 of 18 (2.39) |
| KDSQSMLYESTNVNSVA | WASTRES | QQYHRLPLS | Ctrl | 2.95 n.d. n.d. 1.20 n.d. n.d. | 2.07 | 1 of 18 (1.82) |
| KSDQSWLYESRNKNSVA | HASTREQ | QQYHRLPLS | GP_HC | 0.41 0.03 0.17 -0.19 0.00 0.19 | 0.10 | 2 of 18 (2.29) |
| KFSQSWLYESRNKNSVA | NASYRES | QQYHRLPLS | GP_Gen | -0.30 -0.17 -0.51 -0.65 -0.52 -0.24 | -0.40 | 0 of 18 |
| KMSQSVLYEDDNKNSVA | WASTRES | QQYHRLPLS | Ctrl | n.d. n.d. n.d. n.d. n.d. n.d. | n.d. | 0 of 18 |
| KNSFSDLYESENKNSVA | WASTRES | QQYHRLPLS | Ctrl | 0.98 1.22 1.00 1.17 0.93 0.68 | 0.99 | 0 of 18 |
| KSSQSVLYESRNKNQVA | SASTRES | QQYHRLPLS | Ctrl | 0.19 0.47 0.67 0.53 0.39 0.39 | 0.44 | 2 of 18 (2.35) |
| KLSQSVLYESRNKNSVA | NASMRES | QQYHRLPLS | GP_Gen | 0.16 0.02 -0.02 -0.16 0.27 0.23 | 0.08 | 2 of 18 (1.79) |
| KLSFSQLYESRNKNSVA | NASTRES | QQYHRLPLS | GP_Gen | -0.32 -0.53 -0.48 -0.58 -0.51 -0.31 | -0.45 | 1 of 18 (2.40) |
| ISSQSVMGEERNKNSVA | AASTREV | QQYHRLPLS | GP_Gibbs | 0.89 0.47 0.71 0.78 0.73 0.76 | 0.72 | 1 of 18 (3.01) |
| KLSQSVPYESRNKNSVA | EASTREE | QQYHRLPLS | GP_Gen | 0.01 -0.12 -0.10 -0.22 -0.36 -0.09 | -0.15 | 1 of 18 (2.26) |
| KSSQSVLYESRNKNSVA | WASTRSS | QRYHRLPLS | Ctrl | n.d. n.d. n.d. n.d. 1.52 n.d. | 1.52 | 2 of 18 (2.27) |
| KYSQSVPYESANKNSVA | WASTRES | QQYHRLPLS | Ctrl | n.d. n.d. n.d. n.d. n.d. n.d. | n.d. | 0 of 18 |
| KISQSVLYESRNKNSVA | DASTRMS | QQYHRLPLS | GP_Gen | -0.19 -0.25 -0.31 -0.34 -0.32 -0.23 | -0.27 | 0 of 18 |
| KSSISVLYESGNKNSVA | WATTRES | QQYWRLPLS | Ctrl | n.d. 3.39 2.39 n.d. 3.64 n.d. | 3.14 | 0 of 18 |
| KSSQSYHYGSRNKNSVA | GASTRES | QQYHRLPLS | GP_HC | 0.92 1.19 1.26 1.11 0.96 1.15 | 1.10 | 1 of 18 (1.28) |
| KVSQSFLYESRNKNSVA | EASQRES | QQYHRLPLS | GP_Gen | -0.22 -0.25 -0.28 -0.29 -0.45 0.07 | -0.24 | 1 of 18 (2.08) |

Picked from the list: the 8 lowest averages where every replicate gave a value.

CDR-L1,CDR-L2,CDR-L3,group,"log10 Kd, replicates","mean, log10 nM",signal with controls
KLSFSQLYESRNKNSVA,NASTRES,QQYHRLPLS,GP_Gen,-0.32 -0.53 -0.48 -0.58 -0.51 -0.31,-0.45,1 of 18 (2.40)
KFSQSWLYESRNKNSVA,NASYRES,QQYHRLPLS,GP_Gen,-0.30 -0.17 -0.51 -0.65 -0.52 -0.24,-0.40,0 of 18
KLSQSDEYESRNKNSVA,NASQRES,QQYHRLPLS,GP_Gen,-0.25 -0.34 -0.44 -0.39 -0.45 -0.22,-0.35,2 of 18 (2.67)
KLSQSDLYESRNKNAVA,QASTRES,QQYHRLPLS,GP_Gen,-0.15 -0.36 -0.39 -0.50 -0.35 -0.27,-0.34,4 of 18 (3.16)
KLAQSVLYESRNKNSVA,GASTRES,QQYHRLPLS,GP_Gen,0.01 -0.35 -0.52 -0.35 -0.31 -0.13,-0.27,0 of 18
KISQSVLYESRNKNSVA,DASTRMS,QQYHRLPLS,GP_Gen,-0.19 -0.25 -0.31 -0.34 -0.32 -0.23,-0.27,0 of 18
KVSQSFLYESRNKNSVA,EASQRES,QQYHRLPLS,GP_Gen,-0.22 -0.25 -0.28 -0.29 -0.45 0.07,-0.24,1 of 18 (2.08)
KLSQSELYESRNKNSVA,NASTREK,QQYHRLPLS,GP_Gen,0.00 -0.21 -0.29 -0.18 -0.31 -0.04,-0.17,2 of 18 (2.90)